The chains behind the UniProt entries cited, without tags or fusion partners. Residues count along the entry.
UniProt P56817, 46-501 limits assumed: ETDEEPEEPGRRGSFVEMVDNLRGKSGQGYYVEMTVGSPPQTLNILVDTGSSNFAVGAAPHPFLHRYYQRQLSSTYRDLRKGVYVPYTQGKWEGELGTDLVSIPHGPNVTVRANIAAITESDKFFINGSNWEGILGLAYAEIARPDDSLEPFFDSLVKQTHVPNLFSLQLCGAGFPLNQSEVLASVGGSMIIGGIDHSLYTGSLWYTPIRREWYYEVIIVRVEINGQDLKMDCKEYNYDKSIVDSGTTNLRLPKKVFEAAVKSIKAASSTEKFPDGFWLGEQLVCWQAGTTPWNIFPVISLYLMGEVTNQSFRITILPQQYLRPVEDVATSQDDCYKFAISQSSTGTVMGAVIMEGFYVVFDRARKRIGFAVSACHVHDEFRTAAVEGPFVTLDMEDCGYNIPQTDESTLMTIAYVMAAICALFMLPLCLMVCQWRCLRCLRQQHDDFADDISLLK

According to patent publication US7723368B2, “Amino-5-[4-(difluoromethoxy)phenyl]-5-phenylimidazolone compounds for the inhibition of beta-secretase” (Wyeth LLC, priority 2007, dated 2010):

Target: human BACE1 (Homo sapiens, UniProt P56817)
Test: BACE1 fluorescent kinetic assay (cleavage of peptide substrate WABC-6)
Format: biochemical
Settings: read-out: BACE1 IC50 μM; Activity Table, Examples 1-108; 10 nM enzyme, 25 μM substrate WABC-6, pH 4.5, room temperature; tested form: HCl

IC50: 0.11 to 1 µM
Compound: CC=CCNc1cccc(C2(c3ccc(OC(F)F)cc3)N=C(N)N(C)C2=O)c1 (stereo not shown)
